HCMV NEC inh: cytomegalovirus nuclear egress complex inhibition. HTRF UL50-UL53 interaction, normalized percent inhibition. AID 1918969. inhibition, % (test concentration not listed). actives 0.15% (n = 190,000); in the data active = inhibition above about 27%, passing the limit was not always enough
GIV Gai3 FP: inhibitors of GIV GBA-motif binding to rat Galpha-i3; P08753; Galpha-i3/FITC-GIV peptide fluorescence polarization, 90 min; hits give low values; scaled: aluminum fluoride 0%, vehicle 100%; percent of control (FP), % (test concentration not listed); AID 1224905; hit rate 0.42% among 210,000;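 active = replicate mean at 85% of control or lower, very high polarization wells dropped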;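 note: wells of about 15 µL received 100 nL stock; the first replicate is given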
GIV-Gai FP conf: GIV-Galpha-i3 inhibition, FP confirmation. shares compounds with GIV Gai3 FP. FITC-GIV peptide binding to Galphai3, fluorescence polarization; active compounds read low. fluorescence polarization, mP at 100 µM. actives 38% (n = 580);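 active = inhibition score of 15 or more, meaning 100 minus mean polarization as percent of control over three replicates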;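 note: lower mP means peptide displaced from Galphai3 so more inhibition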
GIV Gai AS conf: GIV-Galpha-i3 inhibition, AlphaScreen confirmation; shares compounds with GIV Gai3 FP; AlphaScreen Galphai3-GIV binding, purified proteins, 90 min; active compounds read low; AlphaScreen counts at 100 µM; actives 39% (n = 580); AID 1259351;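 active = inhibition score at or above a set limit, where the score is 100 minus the three-replicate mean percent of control signal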
Each line names hits and unclear results; the compound was inactive in the other large screens (follow-up assays come after a bar, where they were run). Rows were chosen to be rich in hits. Some 0.43% of all compounds tested hit in one or more screens of this group.

COC(=O)c1ccc(-c2ncc(-c3ccc(N(C)C)cc3)o2)cc1	none | GIV-Gai FP conf inactive | GIV Gai AS conf inactive
COC(=O)c1ccc(-c2nnc(-c3ccc(N(C)C)cc3)o2)cc1	none (no result: GIV Gai3 FP)
CC(C)(O)CC1(CO)CCCCC1	none | GIV-Gai FP conf inactive | GIV Gai AS conf inactive
CCCS(=O)(=O)N1CCCc2ccc(NC(=O)CN3C(=O)c4ccccc4C3=O)cc21	none
O=C1C(Sc2ncn[nH]2)=C/C(=N/S(=O)(=O)c2ccc(Cl)cc2)c2ccccc21	GIV Gai3 FP 8.2 | GIV-Gai FP conf 18 | GIV Gai AS conf 4487
O=S(=O)(Nc1ccc(O)c(Sc2ncn[nH]2)c1)c1ccccc1	none (no result: HCMV NEC inh)
CCC(C)NC(=O)c1[nH]c2cc(C)ccc2c1Sc1ccc(Cl)cc1 (configuration not stated)	none
Cc1ccc2c(Sc3ccc(Cl)cc3)c(C(=O)NC(C)C)[nH]c2c1	GIV Gai3 FP 57 | GIV-Gai FP conf inactive | GIV Gai AS conf inactive
CN(N)c1cc(=O)n(C)c(=O)[nH]1	GIV Gai3 FP 64 | GIV-Gai FP conf 49 | GIV Gai AS conf inactive
Cn1c(=O)cc(N2CCCCC2)[nH]c1=O	none
Cc1ccsc1-c1nc(-c2cc3c(C)nn(-c4ccccc4)c3s2)no1	GIV Gai3 FP 41 | GIV-Gai FP conf inactive | GIV Gai AS conf inactive
Cc1nc(C)c(-c2nc(-c3cc4c(C)nn(-c5ccccc5)c4s3)no2)s1	none
Cc1ccc(C(=O)c2[nH]c(=O)c3ccccc3c2O)c(C)c1	HCMV NEC inh 60, GIV Gai3 FP 81 | GIV-Gai FP conf inactive | GIV Gai AS conf inactive
CCOC(=O)c1[nH]c(=O)c2ccccc2c1O	none
Cc1ccc(NCc2cc(=O)[nH]c3ccccc23)cc1	none
c1ccc2c(c1)COC(CN1CCOCC1)OC2	none
Cc1ccc(C)n1-c1ccc(SCC(=O)O)cc1	HCMV NEC inh 56, GIV Gai3 FP 6.4 | GIV-Gai FP conf 17 | GIV Gai AS conf 2022
COc1ccc(SCC(=O)O)cc1	none (no result: GIV Gai3 FP)
O=C(C1CCCCC1)N1CCN(c2cc(C(F)(F)F)nc3ccccc23)CC1	none
O=C(O)CSCC(=O)N1CCN(c2cc(C(F)(F)F)nc3ccccc23)CC1	none | GIV-Gai FP conf inactive | GIV Gai AS conf inactive
NC(=O)NC(CC(=O)Nc1ccc(S(N)(=O)=O)cc1)c1ccccc1Cl (configuration not stated)	none (no result: GIV Gai3 FP)
O=C(Nc1ccc(N2CCOCC2)c2nonc12)c1ccco1	none
Nc1ccc(N2CCOCC2)c2nonc12	GIV Gai3 FP 63 | GIV-Gai FP conf 46 | GIV Gai AS conf 2710
Cc1c(-c2nnnn2-c2ccc(Cl)cc2)cnn1-c1ccccc1	none
COc1ccc(-n2cnc3cc(NCc4ccccc4O)ccc32)cc1	none (no result: GIV Gai3 FP)
O=C(CSC1=NS(=O)(=O)c2ccccc21)Nc1ccccc1	GIV Gai3 FP 66 | GIV-Gai FP conf inactive | GIV Gai AS conf 10980
COc1ccc(CCNC(=O)CSC2=NS(=O)(=O)c3ccccc32)cc1OC	none
O=C(O)c1nc(Cl)c(Cl)c(Cl)c1Cl	none
Cc1cccc(NC(=O)c2sc3nc(-c4cccs4)cc(C(F)(F)F)c3c2N)n1	none (no result: HCMV NEC inh)
Nc1c(C(=O)Nc2ccccn2)sc2nc(-c3cccs3)cc(C(F)(F)F)c12	GIV Gai3 FP 43 (no result: HCMV NEC inh) | GIV-Gai FP conf inactive | GIV Gai AS conf inactive
Cc1ccc(C(C)C)c(OCC(=O)Nc2cc(-c3nc4ncccc4o3)ccc2C)c1	none (no result: HCMV NEC inh) | GIV-Gai FP conf inactive | GIV Gai AS conf inactive
Cc1cc(C)cc(C(=O)Nc2ccc(-c3nc4ncccc4o3)cc2)c1	GIV Gai3 FP 82 | GIV-Gai FP conf inactive | GIV Gai AS conf inactive
Cc1ccc(C(C)C)c(OCC(=O)Nc2cccc(-c3nc4ncccc4o3)c2)c1	none
O=C(Nc1ccc(-c2nc3ncccc3o2)cc1)c1ccccc1	none (no result: HCMV NEC inh)
Cc1ccc(OCC(=O)Nc2ccc(-c3nc4ccccc4o3)cc2)c(C)c1	none | GIV-Gai FP conf inactive | GIV Gai AS conf inactive
Cc1cc(C)c2oc(-c3ccc(NC(=O)COc4ccccc4C)cc3)nc2c1	none
O=C(O)c1cc(O)[nH]c(=O)c1	HCMV NEC inh 83, GIV Gai3 FP 78 | GIV-Gai FP conf 42 | GIV Gai AS conf 10996
O=C(O)c1cc(O)c(O)c(O)c1	none (no result: GIV Gai3 FP)
O=C(Nc1cc(-c2nc3ccccc3o2)ccc1Cl)c1ccc(Br)o1	GIV Gai3 FP 69 | GIV-Gai FP conf inactive | GIV Gai AS conf inactive
O=C(Nc1ccc(-c2nc3ccccc3o2)cc1)c1ccc(Br)o1	none
Cc1cc(C)c2oc(-c3cccc(NC(=O)c4ccco4)c3)nc2c1	none
Cc1cc(C)c2oc(-c3cccc(NC(=O)c4ccc(Br)o4)c3)nc2c1	none | GIV-Gai FP conf inactive | GIV Gai AS conf inactive
O=C(Nc1ccc2c(c1)S(=O)(=O)c1cc(NC(=O)C34CC5CC(CC(C5)C3)C4)ccc1-2)C12CC3CC(CC(C3)C1)C2	none (no result: HCMV NEC inh)
CCc1ccc(NC(=O)CCc2nc3cccnc3n2Cc2cccs2)cc1	none (no result: HCMV NEC inh)
O=C(CNc1ccc2c(c1)oc1ccccc12)c1ccc(F)cc1	none (no result: GIV Gai3 FP)
O=C(CSc1nc(-c2ccccc2)cs1)N1CCOCC1	none | GIV-Gai FP conf inactive | GIV Gai AS conf inactive
O=C(CSc1nc(-c2ccccc2)cs1)N1CCN(S(=O)(=O)c2ccccc2)CC1	none (no result: GIV Gai3 FP)
CCOC(=O)c1c(-c2ccccc2)cn2ccccc12	none
CCOC(=O)c1c(-c2ccccc2)c[nH]c1N	GIV Gai3 FP 60 | GIV-Gai FP conf 39 | GIV Gai AS conf 19838
O=C(Nn1cnc2c(cnn2-c2ccccc2)c1=O)c1ccccc1	none
NNC(=O)c1ccc(CS(=O)(=O)c2ccccc2)o1	none (no result: GIV Gai3 FP)
O=C(O)c1ccc(CS(=O)(=O)c2ccccc2)o1	GIV Gai3 FP 77 (no result: HCMV NEC inh) | GIV-Gai FP conf inactive | GIV Gai AS conf 2163
Cc1ccc(-c2nc3nc(C)cc(N4CCN(c5cccc(C)c5)C(C)C4)n3n2)cc1 (configuration not stated)	GIV Gai3 FP 73 | GIV-Gai FP conf inactive | GIV Gai AS conf inactive
Cc1cccc(-c2nc3nc(C)cc(N4CCN(c5ccccc5)CC4)n3n2)c1	none
CCCc1nc2nc[nH]n2c(=O)c1NS(=O)(=O)c1ccc(OC)cc1	none
CCN(CC)c1c(S(=O)(=O)c2ccccc2)cnc2ccc(C)cc12	none
CCCCCN1C(C(=O)c2ccccc2)=C(NC(=O)c2ccccc2OC)c2ccccc2S1(=O)=O	none
CN1C(C(=O)Nc2ccc(OC(F)(F)F)cc2)=CC(c2ccc3c(c2)OCO3)=NS1(=O)=O	GIV Gai3 FP 55 | GIV-Gai FP conf inactive | GIV Gai AS conf inactive
CCc1ccc(NC(=O)C2=CC(c3ccc4c(c3)OCO4)=NS(=O)(=O)N2C)cc1	none
COc1cccc(C=Nc2ccccc2N2C(=O)c3ccccc3C2=O)c1O	none
Cc1ccc(NC(=S)Nc2cccc(C(F)(F)F)c2)cc1NS(C)(=O)=O	HCMV NEC inh 74, GIV Gai3 FP 69 | GIV-Gai FP conf 50 | GIV Gai AS conf inactive
COC(CNC(=S)Nc1cccc(C(F)(F)F)c1)OC	none
Cc1ccccc1-n1c(SCc2nc(-c3ccccc3)no2)nc2cc3c(cc2c1=O)OCO3	none (no result: HCMV NEC inh)
COc1cccc(C2=N/C(=C\c3ccccc3OC)C(=O)N2c2ccc(C)cc2Br)c1	none (no result: HCMV NEC inh)
COc1cccc(C2=N/C(=C\c3ccccc3OC)C(=O)N2c2ccc(C)cc2C)c1	GIV Gai3 FP 73 (no result: HCMV NEC inh) | GIV-Gai FP conf inactive | GIV Gai AS conf inactive

Compound activity as filed in PubChem.
